In one assay the target is KAT8 (Homo sapiens, UniProt Q9H7Z6). Nature of the assay: KAT assay (SAMDI mass spectrometry), KAT8 Ki. As to conditions: read-out: KAT8 Ki at 1 μM AcCoA, KAT8 15 nM, 2 uM H3 1-21 peptide, 45-minute reaction. Here is the method: (§1) A. Compound Preparation • 1. Prepare 10 mM stock solutions in 100% DMSO from solid material • 2. Serial dilute 10 mM, 1 mM or 0.1 mM compound stocks 3-fold in 100% DMSO for 11-point dose response
(§2) B. Reagent Preparation • 1. Prepare 1× assay buffer containing 10 mM Tris HCL pH 8.0, 2.5 mM NaCl, 0.5 mM EDTA, 0.005% BSG and 0.02% Tween-20 • 2. Dilute Histone peptide (CPC Scientific) and AcCoA (Sigma) together in assay buffer to 2×. • 3. Dilute KAT enzyme in assay buffer to 2×.
(§3) C. Enzyme Reaction • 1. Final reaction conditions for each KAT assay in a 20 ul assay reaction volume: • i. KAT5 25 nM, 1 uM AcCoA, 2 uM H4 1-21 peptide, 30-minute reaction • ii. KAT6A 15 nM, 1 uM AcCoA, 2 uM H3 1-21 peptide, 45-minute reaction • iii. […] Each reaction was analyzed using self-assembled monolayer desorption/ionization time-of-flight mass spectrometry (Mrksich, Milan (2008) Mass Spectrometry of Self-Assembled Monolayers: A New Tool for Molecular Surface Science ACS Nano 2008 2 (1), 7-18; SAMDI Tech, Inc. (Chicago, Ill.)). • 7. Area under the curve (AUC) for both substrate and product peaks was determined for KAT5 at M.W. 2561 [Substrate+H]+ and 2603 [Product+H]^+ with a +/−1 Da tolerance, respectively • 8. Area under the curve (AUC) for both substrate and product peaks was determined for KAT6A, KAT6B, KAT7 and KAT8 at M.W. 2723 [Substrate+H]^+ and 2765 [Product+H]^+ with a +/−1 Da tolerance, respectively. • 9. […]

Protein sequences, listed by entry. Tags and fused reporters are not part of them.
UniProt Q9H7Z6, whole entry: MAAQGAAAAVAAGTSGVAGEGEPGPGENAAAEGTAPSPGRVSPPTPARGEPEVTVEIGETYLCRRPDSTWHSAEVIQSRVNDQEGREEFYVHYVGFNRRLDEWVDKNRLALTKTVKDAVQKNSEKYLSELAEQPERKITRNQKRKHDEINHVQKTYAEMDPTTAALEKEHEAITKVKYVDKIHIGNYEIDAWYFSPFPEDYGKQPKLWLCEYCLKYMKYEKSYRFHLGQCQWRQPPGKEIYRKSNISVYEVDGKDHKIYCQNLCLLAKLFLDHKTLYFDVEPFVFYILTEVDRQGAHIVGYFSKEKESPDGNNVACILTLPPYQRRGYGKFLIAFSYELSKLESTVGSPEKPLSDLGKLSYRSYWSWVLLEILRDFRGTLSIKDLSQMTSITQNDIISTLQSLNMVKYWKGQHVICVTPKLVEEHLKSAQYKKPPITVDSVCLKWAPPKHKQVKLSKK
UniProt Q92794, whole entry: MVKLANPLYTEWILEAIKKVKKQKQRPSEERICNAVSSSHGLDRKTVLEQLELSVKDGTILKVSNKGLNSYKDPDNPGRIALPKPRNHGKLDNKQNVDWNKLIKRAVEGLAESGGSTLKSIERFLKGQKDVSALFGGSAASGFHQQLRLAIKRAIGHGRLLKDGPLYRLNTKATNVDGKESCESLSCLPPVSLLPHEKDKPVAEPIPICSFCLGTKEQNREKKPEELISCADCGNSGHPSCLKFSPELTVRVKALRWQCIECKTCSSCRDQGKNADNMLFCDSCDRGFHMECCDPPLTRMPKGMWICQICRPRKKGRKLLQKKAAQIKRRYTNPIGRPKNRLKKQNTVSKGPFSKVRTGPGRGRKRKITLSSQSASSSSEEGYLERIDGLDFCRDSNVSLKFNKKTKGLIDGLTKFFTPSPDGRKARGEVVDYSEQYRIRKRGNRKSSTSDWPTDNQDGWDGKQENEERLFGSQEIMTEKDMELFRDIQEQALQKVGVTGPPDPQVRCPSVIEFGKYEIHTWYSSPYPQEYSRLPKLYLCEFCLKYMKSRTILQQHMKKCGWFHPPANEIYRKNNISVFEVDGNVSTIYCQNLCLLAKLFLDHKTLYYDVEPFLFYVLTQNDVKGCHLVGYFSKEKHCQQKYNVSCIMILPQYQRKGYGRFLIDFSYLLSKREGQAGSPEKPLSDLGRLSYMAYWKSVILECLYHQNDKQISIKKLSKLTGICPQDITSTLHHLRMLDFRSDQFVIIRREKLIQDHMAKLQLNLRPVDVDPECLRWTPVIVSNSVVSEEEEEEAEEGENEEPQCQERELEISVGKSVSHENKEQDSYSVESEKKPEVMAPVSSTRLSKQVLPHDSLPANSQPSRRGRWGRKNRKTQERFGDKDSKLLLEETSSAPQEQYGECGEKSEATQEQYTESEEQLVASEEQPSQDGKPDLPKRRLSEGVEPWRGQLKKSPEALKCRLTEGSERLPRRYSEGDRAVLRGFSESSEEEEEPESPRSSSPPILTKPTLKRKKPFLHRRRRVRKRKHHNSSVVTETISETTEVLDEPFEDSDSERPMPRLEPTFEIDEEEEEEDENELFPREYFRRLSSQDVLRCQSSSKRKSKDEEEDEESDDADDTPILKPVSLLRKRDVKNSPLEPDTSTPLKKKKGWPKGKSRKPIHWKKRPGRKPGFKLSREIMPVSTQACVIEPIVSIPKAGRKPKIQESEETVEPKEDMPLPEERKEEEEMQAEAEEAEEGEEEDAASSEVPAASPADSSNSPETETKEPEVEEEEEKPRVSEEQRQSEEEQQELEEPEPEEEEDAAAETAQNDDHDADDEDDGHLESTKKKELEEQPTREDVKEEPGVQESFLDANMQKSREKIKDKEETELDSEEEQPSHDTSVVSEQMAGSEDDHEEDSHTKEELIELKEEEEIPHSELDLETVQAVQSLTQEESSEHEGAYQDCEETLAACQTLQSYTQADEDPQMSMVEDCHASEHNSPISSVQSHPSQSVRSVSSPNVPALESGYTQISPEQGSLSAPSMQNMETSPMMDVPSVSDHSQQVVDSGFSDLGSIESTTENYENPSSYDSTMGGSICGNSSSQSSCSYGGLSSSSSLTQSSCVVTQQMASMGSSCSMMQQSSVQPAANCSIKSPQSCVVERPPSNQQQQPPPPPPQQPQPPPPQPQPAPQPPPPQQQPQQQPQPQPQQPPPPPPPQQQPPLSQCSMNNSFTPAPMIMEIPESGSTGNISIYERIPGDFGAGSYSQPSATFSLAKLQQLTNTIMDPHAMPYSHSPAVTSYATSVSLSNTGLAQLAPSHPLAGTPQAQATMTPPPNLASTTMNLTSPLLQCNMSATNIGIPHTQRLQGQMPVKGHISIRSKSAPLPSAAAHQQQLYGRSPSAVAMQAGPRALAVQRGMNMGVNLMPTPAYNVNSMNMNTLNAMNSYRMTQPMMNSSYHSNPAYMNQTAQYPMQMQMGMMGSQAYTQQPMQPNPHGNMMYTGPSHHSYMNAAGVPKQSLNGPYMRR
UniProt Q8WYB5, whole entry: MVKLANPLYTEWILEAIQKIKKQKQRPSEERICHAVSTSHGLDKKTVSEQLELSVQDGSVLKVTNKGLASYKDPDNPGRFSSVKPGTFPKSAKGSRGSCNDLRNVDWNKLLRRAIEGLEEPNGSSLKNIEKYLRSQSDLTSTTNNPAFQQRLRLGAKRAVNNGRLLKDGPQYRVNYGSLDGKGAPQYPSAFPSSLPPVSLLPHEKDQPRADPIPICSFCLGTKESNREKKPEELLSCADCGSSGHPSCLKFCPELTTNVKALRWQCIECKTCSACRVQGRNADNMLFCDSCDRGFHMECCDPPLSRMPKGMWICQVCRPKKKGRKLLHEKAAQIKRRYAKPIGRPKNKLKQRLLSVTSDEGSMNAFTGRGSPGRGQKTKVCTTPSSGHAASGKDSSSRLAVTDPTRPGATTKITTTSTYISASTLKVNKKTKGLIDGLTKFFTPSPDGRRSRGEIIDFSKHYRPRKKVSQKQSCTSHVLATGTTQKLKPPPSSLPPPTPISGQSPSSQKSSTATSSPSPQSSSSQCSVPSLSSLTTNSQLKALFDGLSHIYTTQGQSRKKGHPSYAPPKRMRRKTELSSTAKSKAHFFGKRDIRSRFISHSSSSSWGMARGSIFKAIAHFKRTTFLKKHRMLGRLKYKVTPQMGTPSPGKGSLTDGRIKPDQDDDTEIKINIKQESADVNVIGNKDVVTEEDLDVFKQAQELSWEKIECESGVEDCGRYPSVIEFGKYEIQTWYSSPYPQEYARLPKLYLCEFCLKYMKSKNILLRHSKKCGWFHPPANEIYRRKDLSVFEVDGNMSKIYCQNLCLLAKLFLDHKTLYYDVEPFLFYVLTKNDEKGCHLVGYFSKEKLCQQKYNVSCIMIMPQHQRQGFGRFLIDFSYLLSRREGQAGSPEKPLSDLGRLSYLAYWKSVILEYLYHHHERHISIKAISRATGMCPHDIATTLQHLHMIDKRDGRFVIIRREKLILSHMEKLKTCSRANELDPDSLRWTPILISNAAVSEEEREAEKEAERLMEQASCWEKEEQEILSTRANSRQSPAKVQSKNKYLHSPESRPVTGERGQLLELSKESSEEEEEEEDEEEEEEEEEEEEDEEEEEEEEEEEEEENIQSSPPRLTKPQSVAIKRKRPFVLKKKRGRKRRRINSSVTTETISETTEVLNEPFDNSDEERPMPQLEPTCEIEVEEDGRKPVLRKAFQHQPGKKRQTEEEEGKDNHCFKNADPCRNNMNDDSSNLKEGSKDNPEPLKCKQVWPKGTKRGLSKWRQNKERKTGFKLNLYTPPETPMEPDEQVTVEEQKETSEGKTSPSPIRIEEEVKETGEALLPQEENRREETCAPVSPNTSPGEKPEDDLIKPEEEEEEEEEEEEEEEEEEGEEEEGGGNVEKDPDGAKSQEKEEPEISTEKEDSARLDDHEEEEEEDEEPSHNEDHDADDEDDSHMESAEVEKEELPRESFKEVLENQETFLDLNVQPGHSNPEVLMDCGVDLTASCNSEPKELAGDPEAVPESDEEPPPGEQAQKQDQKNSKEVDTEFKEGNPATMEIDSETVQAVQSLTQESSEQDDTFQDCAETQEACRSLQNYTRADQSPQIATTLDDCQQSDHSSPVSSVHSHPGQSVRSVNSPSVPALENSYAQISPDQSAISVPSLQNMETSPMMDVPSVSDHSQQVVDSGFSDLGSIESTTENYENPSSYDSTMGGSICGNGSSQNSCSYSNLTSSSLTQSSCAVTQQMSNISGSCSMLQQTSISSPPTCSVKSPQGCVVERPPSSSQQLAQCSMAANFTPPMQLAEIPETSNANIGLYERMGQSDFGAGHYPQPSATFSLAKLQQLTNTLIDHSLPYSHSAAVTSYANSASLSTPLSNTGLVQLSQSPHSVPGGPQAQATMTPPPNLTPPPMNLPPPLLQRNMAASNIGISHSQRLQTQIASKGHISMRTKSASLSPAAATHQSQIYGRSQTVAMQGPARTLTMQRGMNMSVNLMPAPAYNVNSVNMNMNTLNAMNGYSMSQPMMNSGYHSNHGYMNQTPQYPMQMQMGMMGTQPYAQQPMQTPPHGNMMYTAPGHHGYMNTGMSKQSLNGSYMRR
UniProt Q92993, whole entry: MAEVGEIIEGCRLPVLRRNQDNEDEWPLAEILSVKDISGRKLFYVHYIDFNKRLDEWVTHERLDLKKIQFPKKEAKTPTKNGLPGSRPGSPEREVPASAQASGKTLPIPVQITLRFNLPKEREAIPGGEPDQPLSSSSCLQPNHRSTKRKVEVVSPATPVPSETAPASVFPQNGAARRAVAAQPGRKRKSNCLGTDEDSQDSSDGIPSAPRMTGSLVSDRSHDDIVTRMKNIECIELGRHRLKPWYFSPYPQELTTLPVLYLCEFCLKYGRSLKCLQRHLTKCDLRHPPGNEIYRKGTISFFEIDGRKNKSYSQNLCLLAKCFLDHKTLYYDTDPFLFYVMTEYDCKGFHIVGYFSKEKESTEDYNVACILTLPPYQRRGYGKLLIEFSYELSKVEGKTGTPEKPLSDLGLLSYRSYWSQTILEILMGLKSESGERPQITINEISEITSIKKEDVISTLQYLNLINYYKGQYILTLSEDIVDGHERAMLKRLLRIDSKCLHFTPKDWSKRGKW
UniProt O95251, whole entry: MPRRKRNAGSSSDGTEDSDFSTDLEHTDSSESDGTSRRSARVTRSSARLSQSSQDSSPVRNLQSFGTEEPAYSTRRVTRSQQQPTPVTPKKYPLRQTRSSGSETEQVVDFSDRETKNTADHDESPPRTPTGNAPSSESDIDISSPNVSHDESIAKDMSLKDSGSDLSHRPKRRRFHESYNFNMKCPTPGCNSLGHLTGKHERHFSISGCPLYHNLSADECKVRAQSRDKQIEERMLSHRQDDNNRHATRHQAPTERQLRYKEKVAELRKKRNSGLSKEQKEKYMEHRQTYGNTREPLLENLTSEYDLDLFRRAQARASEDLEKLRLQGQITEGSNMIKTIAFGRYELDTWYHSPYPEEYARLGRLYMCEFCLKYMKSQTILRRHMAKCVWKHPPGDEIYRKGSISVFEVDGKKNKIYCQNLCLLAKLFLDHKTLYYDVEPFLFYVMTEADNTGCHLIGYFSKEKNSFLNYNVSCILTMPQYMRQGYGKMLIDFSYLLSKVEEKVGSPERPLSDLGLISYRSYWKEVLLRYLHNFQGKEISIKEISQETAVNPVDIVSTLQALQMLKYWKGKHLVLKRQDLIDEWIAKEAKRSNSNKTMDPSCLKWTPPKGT

The target of a further assay is KAT6a (Homo sapiens, UniProt Q92794). Nature of the assay: KAT assay (SAMDI mass spectrometry), KAT6a Ki. As to conditions: read-out: KAT6a Ki at 1 μM AcCoA, KAT6A 15 nM, 2 uM H3 1-21 peptide, 45-minute reaction. Here is the method: as §1, §2, §3
For a further assay, the target named is KAT6b (Homo sapiens, UniProt Q8WYB5). Nature of the assay: KAT assay (SAMDI mass spectrometry), KAT6b Ki. As to conditions: read-out: KAT6b Ki at 1 μM AcCoA, KAT6B 25 nM, 2 uM H3 1-21 peptide, 60-minute reaction. The procedure: as §1, §2, §3
The next assay concerns the target KAT5 (Homo sapiens, UniProt Q92993). Nature of the assay: KAT assay (SAMDI mass spectrometry), KAT5 Ki. To be noted: read-out: KAT5 Ki at 1 μM AcCoA, KAT5 25 nM, 2 uM H4 1-21 peptide, 30-minute reaction. Here is the method:
as §1, §2, §3

The next assay has as its target KAT7 (Homo sapiens, UniProt O95251). Nature of the assay: KAT assay (SAMDI mass spectrometry), KAT7 Ki. As to conditions: read-out: KAT7 Ki at 1 μM AcCoA, KAT7 12.5 nM, 2 uM H3 1-21 peptide, 45-minute reaction. The procedure:
as §1, §2, §3

Take `COc1cccc(OC)c1S(=O)(=O)Nc1noc2cc(Cn3ccc(CO)n3)cc(OC)c12`: the inhibitory constant (Ki) on KAT8 was 3.26 µM; at KAT6a, 0.0065 µM; at KAT6b, 0.0124 µM; on KAT5, 12.5 µM; on KAT7, 1.85 µM.

As for `COc1cccc(OC)c1S(=O)(=O)Nc1noc2cc(Cn3nccc3CO)cc(OC)c12`, the figures for the Ki on KAT6a and on KAT7 were 0.682 µM and 10.5 µM, respectively.

The term Ki denotes a measure of affinity in units of concentration, obtained from inhibition or displacement.
